# Only some compounds are listed: those with a hit (about 4.2% of all), similar ones and a draw of the others.
# MC4R barr agon: MC4R agonists recruiting beta-arrestin, primary screen, cell-based, luminescence, agonist arm of biased-ligand search; Melanocortin receptor 4 (Homo sapiens), P32245; U2OS MC4R beta-arrestin complementation; percent of melanotan II response, DMSO zero; activation, % at 8.9 µM; hit rate 0.98% among 360,000;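 active means activation above a per-plate cutoff, the mean activation of sample wells on that plate plus 3 SD, cut at about 8% in these data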
# ALR H2O2 inh: inhibitors of human ALR sulfhydryl oxidase, primary screen, biochemical, H2O2 detection, HRP-luminol luminescence, single point | AID 485317, 2010 | inhibition, % (test concentration not listed) | purified ALR, DTT oxidation | FAD-linked sulfhydryl oxidase ALR (Homo sapiens), P55789 | hit rate 3.8% among 290,000;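 active = mean and each replicate at 75% or more; inconclusive = only one of the two met; inactive = neither met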;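 also: stock transfer was 7.5 nL into about 7.5 µL; 0% = neutral wells and 100% = wells with inactivated enzyme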
# NALP1 yeast inh: NALP1 inflammasome inhibitors in reconstituted yeast, colorimetric, S. cerevisiae, triplicate retest; hit rate 0.61% among 280,000; S. cerevisiae NALP1/ASC/caspase-1 growth, X-gal OD620, 72 h; AID 2071, 2009; inhibition, % at 10 µM; in the data active means inhibition mostly above about 24%, no sharp cut-off; inactive means mostly below about 32%
# UUG fidelity: alters start codon recognition fidelity in yeast. S. cerevisiae UUG-firefly luciferase reporter, luminescence/redox ratio. AID 602363. activity score, % at 18.7 µM. hit rate 0.13% among 350,000;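 active = replicate mean at a twofold rise or more, about +100% in these data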;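 note: firefly luciferase made from a UUG start codon reports start codon fidelity; reporter light over untreated wells divided by growth signal over untreated wells; some hits fall short of that in this replicate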
# MC4R antag cAMP: MC4R antagonists of cAMP signaling, primary screen, cell-based, TR-FRET, antagonist arm of biased-ligand search. MC4R-expressing cells, MTII-stimulated cAMP, LANCE TR-FRET. hit rate 0.48% among 360,000. AID 540295, 2011. Melanocortin receptor 4 (Homo sapiens), P32245. inhibition, % at 6.5 µM;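 active means inhibition above its plate's cutoff, the mean of tested wells on that plate plus 3 SD, cut at about 29% in these data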;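 further: 0% = Melanotan II alone and 100% = Melanotan II plus saturating MCL0020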
#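 Test system: U2OS cells stably expressing human melanocortin 4 receptor (MC4R); also added: Melanotan II challenge; compound: 6.5 µM single dose; timing: 30-min compound preincubation, 1-h Melanotan II challenge, 1-h detection, room temperature; signal: Eu-cAMP/anti-cAMP TR-FRET, emission 671 nm; repeats: one well per compound, no replicates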
# HDAC3 inhib: HDAC3 deacetylase inhibitors, primary screen, biochemical, fluorescence, cell-free homogeneous. AID 2718, 2010. hit rate 0.15% among 320,000. inhibition, % at 8.3 µM. recombinant HDAC3, fluorogenic peptide/trypsin coupled; in the data active means inhibition above about 26%, passing the limit was not always enough; inconclusive means no clear call, values can overlap the other calls
# Active calls of the source: *; ? = inconclusive; . = not tested or not shown.
[1] CCN1C=C(Cc2ccc(F)cc2)C2=C(C1)C(c1ccc(F)cc1)C(C#N)=C(N)O2 (stereo not given)
[2] COc1ccccc1N1CCN(S(=O)(=O)c2cnc[nH]2)CC1
[3] COc1ccccc1N1CCN(S(=O)(=O)c2ccccc2)CC1
[4] COc1ccccc1N1CCN(S(=O)(=O)c2cccs2)CC1
[5] O=C(C[C@@H]1CC[C@@H](NC(=O)NC2CCCCC2)[C@@H](CO)O1)NCc1ccc(Cl)cc1

Protein sequences, listed by entry. Tags and fused reporters are not part of them.
Melanocortin receptor 4 (Homo sapiens), P32245, UniProt P32245, whole entry, looked up: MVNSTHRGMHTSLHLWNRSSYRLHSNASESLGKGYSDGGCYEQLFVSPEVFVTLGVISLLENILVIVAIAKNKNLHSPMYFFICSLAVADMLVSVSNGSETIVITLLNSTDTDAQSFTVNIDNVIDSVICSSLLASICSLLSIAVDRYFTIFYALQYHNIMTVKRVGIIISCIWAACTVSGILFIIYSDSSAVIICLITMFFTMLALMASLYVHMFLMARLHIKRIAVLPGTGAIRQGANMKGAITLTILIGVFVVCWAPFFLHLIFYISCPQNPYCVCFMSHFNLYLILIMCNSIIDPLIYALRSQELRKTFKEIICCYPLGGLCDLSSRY

Screen / compound no.	1	2	3	4	5
MC4R barr agon	1	-1	-2	1	.
ALR H2O2 inh	99*	98*	98*	66	.
NALP1 yeast inh	2	22	21	4	.
UUG fidelity	-2	-3	3	-5	1
MC4R antag cAMP	-2	1	4	4	.
HDAC3 inhib	8	.	-4	-2	.

[6] Nc1ccccc1Nc1nc2ccccc2[nH]1
[7] Nc1ccc(Nc2nc3ccccc3[nH]2)cc1
[8] Cc1ccc2nc(C)cc(N/N=C/c3cccc(O)c3)c2c1
[9] COc1cccc2c(N/N=C/c3ccc(O)c(O)c3)cc(C)nc12
[10] COc1ccc2nc(C)cc(N/N=C/c3ccc(F)cc3)c2c1

Screen / compound no.	6	7	8	9	10
MC4R barr agon	0	-2	0	-2	9.2*
ALR H2O2 inh	99*	42	99*	99*	-2
NALP1 yeast inh	13	5	11	-4	18
UUG fidelity	-22	10	-9	-21	-24
MC4R antag cAMP	20	-2	16	4	9
HDAC3 inhib	-3	5	-4	-6	-1

[11] C[C@@H]1CN([C@@H](C)CO)C(=O)c2cc(C#Cc3ccccc3)cnc2O[C@@H]1CN(C)C(=O)C1CC1
[12] CCN1/C(=C\C=C(C(C)=O)C(C)=O)Sc2ccccc21
[13] CCCN1C(=O)/C(=C\C=C2/Sc3ccccc3N2CC)SC1=S
[14] OC(CNCC1CCCO1)Cn1c2ccc(Cl)cc2c2cc(Cl)ccc21 (stereo not given)
[15] OC(CNCC1CCCO1)Cn1c2ccccc2c2ccccc21 (stereo not given)

Screen / compound no.	11	12	13	14	15
MC4R barr agon	.	-1	.	8.9*	-2
ALR H2O2 inh	.	99*	.	-13	-11
NALP1 yeast inh	.	4	-10	28*	11
UUG fidelity	6	.	.	-10	-7
MC4R antag cAMP	.	-14	.	-7	-5
HDAC3 inhib	.	?	.	15	2

[16] O=C(NC(Cc1ccccc1)C(=O)O)/C(=C/c1ccc([N+](=O)[O-])cc1)NC(=O)c1ccccc1 (stereo not given)
[17] O=C(NC(Cc1ccccc1)C(=O)O)/C(=C/c1cccc([N+](=O)[O-])c1)NC(=O)c1cccc(Br)c1 (stereo not given)
[18] C[C@H]1CN([C@@H](C)CO)C(=O)c2cccc(NC(=O)Nc3cccc4ccccc34)c2O[C@H]1CN(C)Cc1ccc(-c2ccccc2)cc1
[19] C[C@H](CO)N1C[C@H](C)[C@@H](CN(C)S(=O)(=O)c2ccc(Cl)cc2)OCCCC[C@H](C)Oc2ccc(NS(C)(=O)=O)cc2C1=O
[20] COCC(=O)Nc1ccc2c(c1)C(=O)N(C)[C@H]1CC[C@H](CC(=O)Nc3cn(C)nc3C)O[C@H]1CO2

Screen / compound no.	16	17	18	19	20
MC4R barr agon	1	-1	.	.	.
ALR H2O2 inh	96*	98*	.	.	.
NALP1 yeast inh	14	-5	.	.	.
UUG fidelity	-12	-6	-11	14	-23
MC4R antag cAMP	7	6	.	.	.
HDAC3 inhib	-6	1	.	.	.

[21] C=CCSC1=N/C(=C\c2cc(OCC)c(OC(C)=O)c([N+](=O)[O-])c2)C(=O)S1
[22] COc1ccc(CN(C)C[C@@H]2Oc3ccc(NC(=O)C4CCCCC4)cc3CC(=O)N([C@H](C)CO)C[C@@H]2C)cc1
[23] O=C(O)CSc1nc(SCc2ccccc2Cl)nc2c1CCCC2
[24] Cc1ccc(C2C3CSCC=C3C(C#N)=C(N)C2(C#N)C#N)cc1 (stereo not given)
[25] CC(C)N1CC=C2C(C#N)=C(N)C(C#N)(C#N)C(c3ccccc3)C2C1 (stereo not given)

Screen / compound no.	21	22	23	24	25
MC4R barr agon	-3	.	0	-1	-1
ALR H2O2 inh	98*	.	95*	93*	55
NALP1 yeast inh	-22	.	42	28	16
UUG fidelity	.	-7	.	.	2
MC4R antag cAMP	4	.	6	12	4
HDAC3 inhib	8	.	5	-4	-16

# Looked up above:
# Entry of compound 24 under HDAC3 inhib: -4
# Entry of compound 25 under MC4R antag cAMP: 4

# (cont.)
[26] CCC(=O)NCc1csc(-c2cccs2)n1
[27] O=C1OC(c2ccccc2)=CC1=Cc1ccccc1O
[28] COc1cccc(/C=N/c2oc(-c3ccccc3)cc2C#N)c1O
[29] Cc1oc(/N=C/c2ccccc2)c(C#N)c1C
[30] COc1cccc(C=Nc2ccccc2C#N)c1O

Screen / compound no.	26	27	28	29	30
MC4R barr agon	-1	-1	-1	-1	0
ALR H2O2 inh	94*	.	86*	-2	.
NALP1 yeast inh	8	.	34	12	30
UUG fidelity	.	-21	.	17	8
MC4R antag cAMP	1	2	1	2	6
HDAC3 inhib	-9	.	-11	9	0

[31] COc1ccc(/C=N/c2oc(-c3ccccc3)cc2C#N)cc1
[32] N#Cc1cc(-c2ccccc2)oc1/N=C/c1ccccc1O
[33] COCC(=O)Nc1ccc2c(c1)C(=O)N(C)C[C@H](OC)[C@@H](C)CN(Cc1cccc(F)c1)[C@@H](C)CO2
[34] Cc1ccc(CNC(=O)CN(c2ccc(C(C)C)cc2)S(=O)(=O)c2c(C)noc2C)cc1
[35] Cc1cc(C)cc(N(CC(=O)NCc2ccco2)S(=O)(=O)c2c(C)noc2C)c1

Screen / compound no.	31	32	33	34	35
MC4R barr agon	-1	0	.	-2	1
ALR H2O2 inh	97*	97*	.	5	86*
NALP1 yeast inh	31	22	.	32	9
UUG fidelity	-41	-4	3	-11	-14
MC4R antag cAMP	-1	0	.	12	2
HDAC3 inhib	-7	-29	.	0	9

[36] Cc1ccc(N(CC(=O)NCc2ccc3c(c2)OCO3)S(=O)(=O)c2c(C)noc2C)cc1
[37] CCOc1ccc(N(CC(=O)Nc2cccc(OC)c2)S(=O)(=O)c2c(C)noc2C)cc1
[38] Cc1noc(C)c1S(=O)(=O)N(CC(=O)NCc1ccc2c(c1)OCO2)c1ccc(C(C)C)cc1
[39] CCOc1ccc(N(CC(=O)Nc2cccc(Cl)c2)S(=O)(=O)c2c(C)noc2C)cc1
[40] COc1ccc(CNC(=O)CN(c2ccc(C)cc2)S(=O)(=O)c2c(C)noc2C)cc1

Screen / compound no.	36	37	38	39	40
MC4R barr agon	0	6	3	0	-1
ALR H2O2 inh	97*	-188	95*	97*	-2
NALP1 yeast inh	-12	27	17	3	14
UUG fidelity	-10	4	-5	-12	-3
MC4R antag cAMP	12	9	7	5	1
HDAC3 inhib	.	13	-2	-6	-3

[41] C[C@H]1CN([C@@H](C)CO)C(=O)c2cc(NS(=O)(=O)c3cn(C)cn3)ccc2O[C@H]1CN(C)Cc1ccc(-c2ccccc2)cc1
[42] O=[N+]([O-])c1cc(/C=N/O)ccc1N1CCCC1
[43] CO/N=C/c1ccc(N2CCCC2)c([N+](=O)[O-])c1
[44] CO[C@H]1CN(C)C(=O)c2cc(NC(C)=O)ccc2OC[C@H](C)N(Cc2ccccc2C(=O)O)C[C@@H]1C
[45] CCCN(C)C[C@H]1Oc2cc(C#C[C@@H](C)O)ccc2S(=O)(=O)N([C@H](C)CO)C[C@H]1C

Screen / compound no.	41	42	43	44	45
MC4R barr agon	.	-1	-2	.	.
ALR H2O2 inh	.	92*	.	.	.
NALP1 yeast inh	.	23	-28	.	.
UUG fidelity	-13	.	.	14	13
MC4R antag cAMP	.	14	-4	.	.
HDAC3 inhib	.	15	3	.	.

# Records above marked active in MC4R barr agon.
[10] COc1ccc2nc(C)cc(N/N=C/c3ccc(F)cc3)c2c1
[14] OC(CNCC1CCCO1)Cn1c2ccc(Cl)cc2c2cc(Cl)ccc21 (stereo not given)

Screen / compound no.	10	14
MC4R barr agon	9.2*	8.9*
ALR H2O2 inh	-2	-13
NALP1 yeast inh	18	28*
UUG fidelity	-24	-10
MC4R antag cAMP	9	-7
HDAC3 inhib	-1	15

# Ordered by value in MC4R barr agon (ascending): 3 of the compounds above.
[21] C=CCSC1=N/C(=C\c2cc(OCC)c(OC(C)=O)c([N+](=O)[O-])c2)C(=O)S1
[23] O=C(O)CSc1nc(SCc2ccccc2Cl)nc2c1CCCC2
[10] COc1ccc2nc(C)cc(N/N=C/c3ccc(F)cc3)c2c1

Screen / compound no.	21	23	10
MC4R barr agon	-3	0	9.2*
ALR H2O2 inh	98*	95*	-2
NALP1 yeast inh	-22	42	18
UUG fidelity	.	.	-24
MC4R antag cAMP	4	6	9
HDAC3 inhib	8	5	-1
